{"sequences": {"note": "Sequences of proteins named here, by UniProt entry; tags and fusion partners are left off. A change or cut given only in a name is not applied to a line headed by its entry.", "UniProt P13922": "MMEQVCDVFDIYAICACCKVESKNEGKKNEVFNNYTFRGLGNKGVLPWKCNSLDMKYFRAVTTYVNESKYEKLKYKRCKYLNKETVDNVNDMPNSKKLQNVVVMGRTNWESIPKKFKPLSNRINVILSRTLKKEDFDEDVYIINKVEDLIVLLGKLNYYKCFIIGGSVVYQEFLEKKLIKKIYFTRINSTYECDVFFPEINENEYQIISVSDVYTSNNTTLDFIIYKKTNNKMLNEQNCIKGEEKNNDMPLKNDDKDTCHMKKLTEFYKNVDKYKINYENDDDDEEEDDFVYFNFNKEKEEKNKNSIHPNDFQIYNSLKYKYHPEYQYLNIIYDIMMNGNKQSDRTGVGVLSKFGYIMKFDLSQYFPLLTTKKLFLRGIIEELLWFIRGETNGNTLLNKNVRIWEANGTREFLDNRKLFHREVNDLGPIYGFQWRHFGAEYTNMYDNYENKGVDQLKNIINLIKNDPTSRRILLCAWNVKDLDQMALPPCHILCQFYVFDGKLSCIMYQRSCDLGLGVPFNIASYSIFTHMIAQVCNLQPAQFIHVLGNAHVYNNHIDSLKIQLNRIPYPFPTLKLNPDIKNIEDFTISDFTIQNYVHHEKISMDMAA"}, "source": "ChEMBL document CHEMBL1135602", "about": "(J Med Chem, 2002)", "target": "Bifunctional dihydrofolate reductase-thymidylate synthase (Plasmodium falciparum K1) (UniProt P13922)", "assay": "Inhibition of the wild-type dihydrofolate reductase (DHFR) relative to Tmp."}
{"compound": "COc1cc(Cc2cnc(N)nc2N)ccc1OCc1cc(OC)c(OC)c(OC)c1", "values": [{"measurement": "Relative activity", "value": 0.06}]}
